In patent US20230027361A1, “METTL3 MODULATORS” (priority 2019, published 2023) one finds IC50 data, which are given here for three compounds.

Chains of the proteins cited; added tags and fusions are not shown.
UniProt Q9UBP6, whole entry: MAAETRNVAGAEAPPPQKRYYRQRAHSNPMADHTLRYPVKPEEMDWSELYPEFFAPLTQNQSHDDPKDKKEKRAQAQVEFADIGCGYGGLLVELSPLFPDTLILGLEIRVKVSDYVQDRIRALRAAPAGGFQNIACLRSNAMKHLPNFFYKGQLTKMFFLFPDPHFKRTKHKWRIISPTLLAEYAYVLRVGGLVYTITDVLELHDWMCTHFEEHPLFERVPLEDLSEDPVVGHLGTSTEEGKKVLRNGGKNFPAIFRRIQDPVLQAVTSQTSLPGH
UniProt O14744, whole entry: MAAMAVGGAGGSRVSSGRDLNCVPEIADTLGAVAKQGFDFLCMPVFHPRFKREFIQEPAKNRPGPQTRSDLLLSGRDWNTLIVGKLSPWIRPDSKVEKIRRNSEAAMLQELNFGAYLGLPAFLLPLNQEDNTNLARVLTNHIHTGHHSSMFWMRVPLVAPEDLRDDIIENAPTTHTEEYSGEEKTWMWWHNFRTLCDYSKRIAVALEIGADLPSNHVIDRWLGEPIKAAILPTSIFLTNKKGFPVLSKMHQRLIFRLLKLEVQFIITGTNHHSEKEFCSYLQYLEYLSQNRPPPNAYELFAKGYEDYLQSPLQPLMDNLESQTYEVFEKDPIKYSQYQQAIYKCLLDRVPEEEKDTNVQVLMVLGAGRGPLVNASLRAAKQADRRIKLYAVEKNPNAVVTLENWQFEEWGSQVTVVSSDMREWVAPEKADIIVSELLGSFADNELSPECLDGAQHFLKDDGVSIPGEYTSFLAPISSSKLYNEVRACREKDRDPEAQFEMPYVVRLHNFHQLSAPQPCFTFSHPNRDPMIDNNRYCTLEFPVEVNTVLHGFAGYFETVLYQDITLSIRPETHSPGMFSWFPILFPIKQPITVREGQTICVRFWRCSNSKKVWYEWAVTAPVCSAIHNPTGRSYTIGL
UniProt Q86U44, whole entry: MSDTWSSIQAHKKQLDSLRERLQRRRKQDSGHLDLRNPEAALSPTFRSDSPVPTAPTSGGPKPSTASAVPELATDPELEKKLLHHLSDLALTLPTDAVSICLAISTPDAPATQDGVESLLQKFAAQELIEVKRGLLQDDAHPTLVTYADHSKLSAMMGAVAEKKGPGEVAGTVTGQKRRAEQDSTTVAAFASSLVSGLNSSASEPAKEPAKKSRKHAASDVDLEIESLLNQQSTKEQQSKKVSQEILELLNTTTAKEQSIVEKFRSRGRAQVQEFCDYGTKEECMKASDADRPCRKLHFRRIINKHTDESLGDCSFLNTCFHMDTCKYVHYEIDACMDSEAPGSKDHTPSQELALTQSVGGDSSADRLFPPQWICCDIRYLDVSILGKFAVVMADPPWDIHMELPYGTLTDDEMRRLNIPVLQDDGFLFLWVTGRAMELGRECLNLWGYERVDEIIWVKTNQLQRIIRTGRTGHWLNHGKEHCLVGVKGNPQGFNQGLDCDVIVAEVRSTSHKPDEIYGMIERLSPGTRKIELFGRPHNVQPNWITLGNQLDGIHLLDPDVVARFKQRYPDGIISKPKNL
UniProt Q9BQA1, whole entry partner: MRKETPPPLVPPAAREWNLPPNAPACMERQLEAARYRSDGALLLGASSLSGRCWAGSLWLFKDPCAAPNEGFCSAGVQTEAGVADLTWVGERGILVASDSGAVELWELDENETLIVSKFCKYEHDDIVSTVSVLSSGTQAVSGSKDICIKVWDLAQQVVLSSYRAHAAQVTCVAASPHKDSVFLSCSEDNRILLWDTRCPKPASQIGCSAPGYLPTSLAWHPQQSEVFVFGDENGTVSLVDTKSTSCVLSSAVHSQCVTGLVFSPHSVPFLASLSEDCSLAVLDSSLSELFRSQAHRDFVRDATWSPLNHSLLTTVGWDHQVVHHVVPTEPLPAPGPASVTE
UniProt P57081, whole entry partner: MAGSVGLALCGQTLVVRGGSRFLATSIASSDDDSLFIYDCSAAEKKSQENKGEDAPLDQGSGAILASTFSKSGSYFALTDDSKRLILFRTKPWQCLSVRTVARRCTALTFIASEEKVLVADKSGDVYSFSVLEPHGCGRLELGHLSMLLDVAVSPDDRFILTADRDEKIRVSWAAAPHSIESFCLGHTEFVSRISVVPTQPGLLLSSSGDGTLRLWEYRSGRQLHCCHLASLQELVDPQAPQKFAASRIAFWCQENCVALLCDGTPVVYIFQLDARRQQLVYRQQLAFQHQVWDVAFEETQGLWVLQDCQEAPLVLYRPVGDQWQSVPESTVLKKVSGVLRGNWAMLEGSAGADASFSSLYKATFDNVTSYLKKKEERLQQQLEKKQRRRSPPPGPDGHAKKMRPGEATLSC
UniProt Q9HCE5, whole entry partner: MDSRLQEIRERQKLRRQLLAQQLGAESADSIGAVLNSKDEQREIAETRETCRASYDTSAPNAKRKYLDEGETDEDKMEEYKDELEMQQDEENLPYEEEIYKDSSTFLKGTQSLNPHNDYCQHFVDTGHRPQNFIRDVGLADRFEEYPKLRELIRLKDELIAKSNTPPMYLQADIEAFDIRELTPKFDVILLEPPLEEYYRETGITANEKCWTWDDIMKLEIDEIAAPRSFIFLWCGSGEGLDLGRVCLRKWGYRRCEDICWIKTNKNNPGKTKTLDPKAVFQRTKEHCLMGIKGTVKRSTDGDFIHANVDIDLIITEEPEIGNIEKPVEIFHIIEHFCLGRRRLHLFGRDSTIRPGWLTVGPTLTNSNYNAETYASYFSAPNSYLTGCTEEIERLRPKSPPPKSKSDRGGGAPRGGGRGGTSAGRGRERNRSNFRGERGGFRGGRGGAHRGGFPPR

Molecules are shown by their SMILES. Bounds are passed on as bounds.

Assay [1] deals with METTL1/WDR4 (Homo sapiens, UniProt Q9UBP6). Kind of assay: METTL1 Assay (METTL1 biochemical assay). As to conditions: read-out: METTL1 IC50. The protocol: Assays were performed in a 25 μl-volume in 384-well V-bottom polypropylene microplates (Greiner Bio-One, cat. No. 781280) at ambient temperature. Optimized 1× assay buffer was 20 mM HEPES pH 7.5, 50 mM KCl, 250 μM MgCl2, 1 mM DTT, 0.01% Tween, 0.01% BSG, 0.004 U/μl RNAseOUT (cat. No. 10777019, ThermoFisher Scientific, Waltham, Mass.). For compound screening METTL1/WDR4 (final concentration, f.c.=6.25 nM) was added using a Multidrop Combi (ThermoFisher Scientific, Waltham, Mass.) and preincubated for 5 min. Reactions were started by adding 3′ biotinylated RNA ([…]-biotin) (f.c.=25 nM) and 3H-SAM (f.c.=60 nM) substrates. Reactions proceeded for 20 minutes and were quenched with excess non-radioactive SAM (f.c.=15 μM). The reactions were then transferred to streptavidin-coated flashplates and incubated for 2 hours at 25° C. Following two washing cycles with 0.1% Tween-20, the plates were sealed and read on a TopCount (PerkinElmer, Waltham, Mass.) plate-based scintillation counter. For determination of kinetic parameters, reaction times were optimized so that measurements were taken during the initial velocity phase of the reaction.

The target in assay [2] is PRMT5-MEP50 (Homo sapiens, UniProt O14744). Nature of the assay: PRMT5 Assay (PRMT5 biochemical assay). The settings on record: read-out: PRMT5 IC50. The protocol:
Assays were performed in a 25 μl-volume in 384-well V-bottom polypropylene microplates (Greiner Bio-One, cat. No. 781280) at ambient temperature. Optimized 1× assay buffer was 20 mM Tris-HCl pH 8.0, 1 mM DTT, […]. For compound screening PRMT5-MEP50 (final concentration, f.c.=2.5 nM) was added using a Multidrop Combi (ThermoFisher Scientific, Waltham, Mass.) and preincubated for 5 min. Reactions were started by adding 3′ biotinylated histone H4 peptide acetylated on serine 1 (Ac-[…]-Biotin) (f.c.=100 nM) and 3H-SAM (f.c.=250 nM) substrates. Reactions proceeded for 60 minutes and were quenched with excess non-radioactive SAM (f.c.=15 μM). The reactions were then transferred to streptavidin-coated flashplates and incubated for 2 hours at 25° C. Following two washing cycles with 0.1% Tween-20, the plates were sealed and read on a TopCount (PerkinElmer, Waltham, Mass.) plate-based scintillation counter. For determination of kinetic parameters, reaction times were optimized so that measurements were taken during the initial velocity phase of the reaction.

Assay [3] has as its target METTL3/METTL14 (Homo sapiens, UniProt Q86U44). Kind of assay: METTL3-14 Standard Enzyme Assay (METTL3 biochemical assay). The settings on record: read-out: METTL3 IC50. The protocol: Assays were performed in a 25 μl-volume in 384-well V-bottom polypropylene microplates (Greiner Bio-One, cat. No. 781280) at ambient temperature. Optimized 1× assay buffer was 20 mM HEPES pH 7.5, 50 mM KCl, 250 μM MgCl2, 1 mM DTT, 0.01% Tween, 0.01% BSG, 0.004 U/μl RNAseOUT (cat. No. 10777019, ThermoFisher Scientific, Waltham, Mass.). For compound screening METTL3/METTL14 (final concentration, f.c.=2.5 nM) was added using a Multidrop Combi (ThermoFisher Scientific, Waltham, Mass.) and preincubated for 5 min. Reactions were started by adding 3′ biotinylated RNA (UCUGGACUAAA-biotin) (f.c.=100 nM) and 3H-SAM (f.c.=100 nM) substrates. Reactions proceeded for 30 minutes and were quenched with excess non-radioactive SAM (f.c.=15 μM). The reactions were then transferred to streptavidin-coated flashplates and incubated for 2 hours at 25° C. Following two washing cycles with 0.1% Tween-20, the plates were sealed and read on a TopCount (PerkinElmer, Waltham, Mass.) plate-based scintillation counter. For determination of kinetic parameters, reaction times were optimized so that measurements were taken during the initial velocity phase of the reaction.

Assay [4] relates to m6A in cellular mRNA of MOLM-13 cells. Kind of assay: m6A-mRNA LC-MS/MS Assay (m6A cellular assay). Type of assay: cell-based. As to conditions: read-out: m^6A IC50.
Assay [5] deals with MOLM-13 cells. Nature of the assay: MOLM-13 48 Hour Cell Proliferation Assay. As to conditions: read-out: MOLM-13 48 Hour cell proliferation IC50. The protocol:
MOLM-13 (DSMZ) cells were seeded at 1000 cells per well in a volume of 44 μL in a Falcon 384-well tissue culture treated clear bottom microplate in RPMI 1640 media containing 10% fetal bovine serum using a Multidrop Combi (ThermoFisher Scientific). Cells were incubated overnight at 37° C. in a humidified tissue culture incubator. The Mosquito® HTS Liquid Handler was used to make a compound/media intermediate plate by aliquoting 1 μL of compound from the initial compound dilution plate (concentrations ranging from 10.0 mM to 38.0 nM in 100% DMSO) into a V bottom 384-well screen matrix plate containing 49 μL of media containing the appropriate serum (50-fold dilution, 2% DMSO). […] The plate was read on an EnVision plate reader (Perkin Elmer) using the Ultra Sensitive Luminescence protocol. Data analysis was performed by normalizing the raw luminescence units to an average of the positive control values for staurosporine (100% cell death) and the negative control values for DMSO (0% cell death). An IC50 was calculated using a 4-parameter logistic nonlinear regression model in GraphPad Prism.

For assay [6], the system named is MOLM-13 cells. Nature of the assay: MOLM-13 96 Hour Cell Proliferation Assay. The settings on record: read-out: MOLM-13 96 Hour cell proliferation IC50. As to the method:
MOLM-13 (DSMZ) cells were seeded at 600 cells per well in a volume of 44 μL in a Greiner Bio-One CELLSTAR™ 384 Well Polystyrene Cell Culture clear bottom microplate in RPMI 1640 media containing 10% fetal bovine serum using a Multidrop Combi (ThermoFisher Scientific). Cells were incubated overnight at 37° C. in a humidified tissue culture incubator. To prevent evaporation or to reduce edge effect, add 50 μL or more H2O to an empty plate, cover, and place on top of the cell plates. […] The plate was protected from light using TopSeal-A (Black) film over the entire plate, added White Bottom seal film on the bottom of the entire plate for a better reading on the Envision, and placed on an IKA plate shaker for at 300 rpm for 10 minutes at room temperature. The plate was read on an EnVision plate reader (Perkin Elmer) using the Ultra Sensitive Luminescence protocol. Data analysis was performed by normalizing the raw luminescence units to an average of the positive control values for staurosporine (100% cell death) and the negative control values for DMSO (0% cell death). An IC50 was calculated using a 4-parameter logistic nonlinear regression model in GraphPad Prism.

Regarding `Nc1ncnc2c1ccn2[C@@H]1C[C@H](CCc2ccccc2)[C@@H](O)[C@H]1O`, the IC50 in assay [1] and in assay [2] was greater than 1000 nM each time.
On to `CNc1ccc2ccc(OC[C@H]3O[C@@H](n4cc(C5CCCCC5)c5c(N)ncnc54)[C@H](O)[C@@H]3O)cc2n1`, for which the IC50 is less than 10 nM in assay [3], greater than 1000 nM in assay [1], less than 10 nM in assay [2] and 1000 to 10000 nM in assay [4].
As for `CNc1ccc2ccc(CC[C@H]3C[C@@H](n4cc(C)c5c(N)ncnc54)[C@H](O)[C@@H]3O)cc2n1`, the IC50 is less than 10 nM in assay [3]; greater than 1000 nM in assay [1]; less than 10 nM in assay [2]; 1000 to 10000 nM in assay [4]; 1000 to 10000 nM in assay [5]; less than 1000 nM in assay [6].
